Values quoted from earlier work, collected in US9072749B2, “Treatment of age-related macular degeneration” (priority 2007, dated 2015).

Test system: D1/D5 receptor
Conditions: anesthetized rabbits

Structure (SMILES): Oc1cc2c(cc1O)C(c1ccccc1)CNCC2 (stereo not shown) [SKF-38393]
- choroidal vasodilation: caused a similar vasodilation
